Experimental data published in patent publication US20200197439A1, “IMM[…] POLYOMAVIRUSES” (Atara Biotherapeutics, Inc., priority 2016, published 2020).

Tested on: BKV specific T cells
Experiment: Expansion of BKV specific T cells in the presence of IL-2 or IL-2 and IL-21
Format: cell-based, human
Settings: IL-2 alone compared to cells grown in presence of IL-2 and IL-21; FIG. 13
Method: BKV specific T cells were generated using the PBMCs from healthy donors. PBMCs were stimulated in vitro with respective BKV peptide pools at a concentration of 1 μg/ml and incubated at 37° C., 6.5% CO2 for an hour. The cells were then washed and split into two to be cultured in two conditions. A part of the cells was grown in the R10 medium (RPMI+10% FCS) containing 30 ng/ml of IL21 (Milteyni Biotech Ltd) in 24 well plates incubated at 37° C., 6.5% CO2. Another part of the cells was incubated with R10 medium without IL-21. The cultures grown in both conditions were supplemented with R10 medium containing recombinant interleukin-2 (Charles River Laboratory, NIH, USA) at 20 IU/ml on day 2 and then supplemented with media containing IL-2 every 3 days thereafter until day 20.
T cells in the cultures were counted and required amount of cells were used for an IFN-γ intracellular cytokine (ICS) assay while the remaining cells were cryopreserved in liquid nitrogen. Approximately 2×10^5 of CTLs were added to a 96 well V-bottom plate. Cells were stimulated with respective peptides at a concentration of 1 μg /ml in R10 medium containing Golgiplug Brefeldin A (BD Pharmingen, San Diego, Calif.) and incubated at 37° C., 6.5% CO2 for four hours. BKV specific T cells were recalled with both BKV peptide and its respective JCV variant and vice versa for JCV specific T cells. […]

Substance: IL-2: recombinant interleukin-2 culture supplement, 20 IU/ml
- percentage of CD25+ cells in both CD8+ and CD4+ T cell populations: higher
